Laboratory results from patent US20260384443A1, “THIADIAZOLES AS GLUTAMINASE I INHIBITORS” (published 2026).

The chains behind the UniProt entries cited, without tags or fusion partners. Residues count along the entry.
UniProt O94925, 73-669 limits assumed: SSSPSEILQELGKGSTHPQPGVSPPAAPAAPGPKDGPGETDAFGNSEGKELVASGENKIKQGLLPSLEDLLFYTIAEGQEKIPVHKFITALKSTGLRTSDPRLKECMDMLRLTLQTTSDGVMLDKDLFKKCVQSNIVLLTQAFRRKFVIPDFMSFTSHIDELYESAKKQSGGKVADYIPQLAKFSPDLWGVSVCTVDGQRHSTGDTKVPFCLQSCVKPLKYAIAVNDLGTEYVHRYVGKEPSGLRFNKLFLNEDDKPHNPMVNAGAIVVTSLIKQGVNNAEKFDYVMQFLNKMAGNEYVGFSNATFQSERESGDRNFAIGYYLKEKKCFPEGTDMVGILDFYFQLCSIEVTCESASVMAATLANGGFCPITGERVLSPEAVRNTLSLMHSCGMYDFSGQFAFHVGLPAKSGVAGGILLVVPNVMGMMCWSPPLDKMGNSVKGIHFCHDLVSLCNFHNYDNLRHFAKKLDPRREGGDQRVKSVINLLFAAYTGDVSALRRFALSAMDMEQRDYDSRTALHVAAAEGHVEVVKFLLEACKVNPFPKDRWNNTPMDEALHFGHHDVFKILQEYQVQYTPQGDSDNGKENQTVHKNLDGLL
UniProt O94925, 55-669 limits assumed: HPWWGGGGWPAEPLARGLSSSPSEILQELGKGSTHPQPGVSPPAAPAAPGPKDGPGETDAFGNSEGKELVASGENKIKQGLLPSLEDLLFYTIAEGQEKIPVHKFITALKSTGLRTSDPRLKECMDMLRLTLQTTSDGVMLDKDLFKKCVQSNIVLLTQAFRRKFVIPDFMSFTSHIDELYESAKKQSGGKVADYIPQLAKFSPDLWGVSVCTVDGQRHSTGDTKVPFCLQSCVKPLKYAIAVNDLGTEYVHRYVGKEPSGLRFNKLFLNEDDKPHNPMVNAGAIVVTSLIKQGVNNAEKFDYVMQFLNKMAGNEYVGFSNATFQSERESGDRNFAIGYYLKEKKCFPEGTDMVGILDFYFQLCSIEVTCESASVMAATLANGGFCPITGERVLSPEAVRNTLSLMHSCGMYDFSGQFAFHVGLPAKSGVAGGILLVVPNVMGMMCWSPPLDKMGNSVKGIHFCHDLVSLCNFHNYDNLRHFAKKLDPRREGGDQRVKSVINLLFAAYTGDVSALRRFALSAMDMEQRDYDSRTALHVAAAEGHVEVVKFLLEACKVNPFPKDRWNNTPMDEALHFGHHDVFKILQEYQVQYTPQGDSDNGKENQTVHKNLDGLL

What was measured:
[1] = molecular target: T1, GLS1 (Homo sapiens, UniProt O94925); experiment: GLS1 enzymatic assay (three-stage coupled endpoint assay: GLS1/GDH/diaphorase, resorufin fluorescence); conditions: read-out: Enzyme IC50
[2] = molecular target: T1, GLS1; experiment: GLS1 cell assay: intracellular glutamate level in A549 cells (Glutamine/Glutamate-Glo); conditions: read-out: Cell IC50, 2 h compound pre-incubation, then 24 h with L-Gln

Compound | IC50 [1] [nM] | IC50 [2] [nM]
O=C(C[C@@H]1CCCN(Cc2ccccc2OC2CC(F)(F)C2)C1)Nc1nnc(N[C@@H]2CCN(c3cccnn3)C2)s1 | 37.5 | 78.8
O=C(CC1CN(Cc2cncc(C(F)(F)F)c2)CC2(CC2)C1)Nc1nnc(N[C@@H]2CCN(c3cccnn3)C2)s1 (stereo partly shown) | 50.4 | 19.8
CSc1ccccc1CN1CCC[C@@H](OCC(=O)Nc2nnc(N[C@@H]3CCN(c4cccnn4)C3)s2)C1 (single isomer, unassigned) [Example 103] | 67.4 | 7.9
O=C(CN1CCN(Cc2cc(F)cc(Br)c2)CC1)Nc1nnc(N[C@@H]2CCN(c3cccnn3)C2)s1 | – | 1.7
CC(C)C(C(C)C)N1CCOC(CC(=O)Nc2nnc(N[C@@H]3CCN(c4cccnn4)C3)s2)C1 (stereo partly shown) | 11.9 | 2.3
COc1cc(CN2CCC[C@@H](CC(=O)Nc3nnc(N[C@@H]4CCN(c5cccnn5)C4)s3)C2)cc(F)c1C | 25.8 | 10.3
O=C(Nc1nnc(N[C@@H]2CCN(c3cccnn3)C2)s1)OC1CCN(Cc2ccc(OC(F)(F)F)cc2)CC1 | 223 | 10.6
O=C(CN1CCN(Cc2cccc(OC(F)(F)F)c2)CC1)Nc1nnc(N[C@@H]2CCN(c3cccnn3)C2)s1 | – | 1.1
CC(C)Oc1ccccc1CN1CCC[C@H](CC(=O)Nc2nnc(N[C@@H]3CCN(c4cccnn4)C3)s2)C1 | 45.9 | 112
Cc1c(F)cc(CN2CCC[C@@H](CC(=O)Nc3nnc(N[C@@H]4CCN(c5cccnn5)C4)s3)C2)cc1F | 36.7 | 5.3
CCN1CCN(Cc2cccc(OC(F)(F)F)c2)[C@H](CC(=O)Nc2nnc(N[C@@H]3CCN(c4cccnn4)C3)s2)C1 (single isomer, unassigned) [Example 205] | 76.8 | 44
O=C(CC1CCC2(CC1)CCN(Cc1cncc(Br)c1)CC2)Nc1nnc(N[C@@H]2CCN(c3cccnn3)C2)s1 | 16.7 | 5
O=C(CN1CCCN(Cc2ccc(OC(F)(F)F)cc2)CC1)Nc1nnc(N[C@@H]2CCN(c3cccnn3)C2)s1 | 58.5 | 3.9
CC(C)Oc1cccnc1CN1CCC(CC(=O)Nc2nnc(N[C@@H]3CCN(c4cccnn4)C3)s2)CC1(C)C (stereo partly shown) | 71.3 | 327
CC(C)[C@@H]1CC[C@@H](C)C[C@@H]1N1CCO[C@H](CC(=O)Nc2nnc(N[C@@H]3CCN(c4cccnn4)C3)s2)C1 (racemic) [Example 127] | 5000 | 8590
O=C(C[C@H]1CN(C2CC3(CCCC3)C2)CCO1)Nc1nnc(N[C@@H]2CCN(c3cccnn3)C2)s1 (single isomer, unassigned) [Example 267] | 16.4 | 1.7
CN1CCN(C2CCC(C)(C)CC2)C[C@H]1CC(=O)Nc1nnc(N[C@@H]2CCN(c3cccnn3)C2)s1 (single isomer, unassigned) [Example 287] | 53.5 | 48
O=C(CC1CCN(Cc2ccccc2OC(F)F)CC1)Nc1nnc(N[C@@H]2CCN(c3cccnn3)C2)s1 | 34.4 | 64
Cc1cc(C(F)(F)F)cc(CN2CCC(CC(=O)Nc3nnc(N[C@@H]4CCN(c5cccnn5)C4)s3)CC2)n1 | 42.5 | 9.3
CC1(C)CCC(N2CCO[C@@H](CC(=O)Nc3nnc(N[C@@H]4CCN(c5ccc(Cl)nn5)C4)s3)C2)CC1 (single isomer, unassigned) [Example 283] | 47.2 | 11.7
O=C(CC1CC2(CO1)CN(Cc1cccc(OC(F)F)c1)C2)Nc1nnc(N[C@@H]2CCN(c3cccnn3)C2)s1 (stereo partly shown) | 21.9 | 23.2
O=C(CC1CN(C2CCCCC2)CCO1)Nc1nnc(N[C@@H]2CCN(c3cccnn3)C2)s1 (stereo partly shown) | 36.9 | 34.4

Compound | IC50 [1] [nM] | IC50 [2] [nM]
CC(C)Oc1ccccc1CN1CCCC(SCC(=O)Nc2nnc(N[C@@H]3CCN(c4cccnn4)C3)s2)C1 (stereo partly shown) | 36.7 | 5.2
Cc1cc(CN2CCC[C@@H](CC(=O)Nc3nnc(N[C@@H]4CCN(c5cccnn5)C4)s3)C2)cc(OC(F)(F)F)c1 | 78.4 | 1.9
CC(C)Oc1ccccc1CN1CCC(SCC(=O)Nc2nnc(N[C@@H]3CCN(c4cccnn4)C3)s2)CC1 | 17.7 | 2.3
O=C(C[C@@H]1CCCN(Cc2cc(F)cc(F)c2)C1)Nc1nnc(N[C@@H]2CCN(c3ccc(Cl)nn3)C2)s1 | 65.4 | 12.1
O=C(CCN1CCC(Sc2cc(F)cc(F)c2)CC1)Nc1nnc(N[C@@H]2CCN(c3cccnn3)C2)s1 | 24.6 | 9.1
O=C(CC1CN(C2CCC3(CC2)CC3)CCC1(F)F)Nc1nnc(N[C@@H]2CCN(c3cccnn3)C2)s1 (stereo partly shown) | 24.6 | 1.7
O=C(CC1CN(C23CCC(CC2)CC3)CCO1)Nc1nnc(N[C@@H]2CCN(c3cccnn3)C2)s1 (stereo partly shown) | 30.4 | 28.8
O=C(CC1CN(C2CCCCCC2)CCC1(F)F)Nc1nnc(N[C@@H]2CCN(c3cccnn3)C2)s1 (stereo partly shown) | 13.1 | 2.4
Cc1ccc(C(C)N2CCC[C@@H](CC(=O)Nc3nnc(N[C@@H]4CCN(c5cccnn5)C4)s3)C2)cc1F (stereo partly shown) | 22.4 | 9.2
O=C(CC1CN(Cc2cccc(OC(F)(F)F)c2)C1)Nc1nnc(N[C@@H]2CCN(c3cccnn3)C2)s1 | 3520 | 2010
CC(C)Sc1ccccc1CN1CCC(OCC(=O)Nc2nnc(N[C@@H]3CCN(c4cccnn4)C3)s2)CC1 | 40.3 | 1.7
Cc1cc(CN2CCC(SCC(=O)Nc3nnc(N[C@@H]4CCN(c5cccnn5)C4)s3)CC2)c(C)s1 | 8.3 | 1.8
O=C(CN1CCN(Cc2c(F)cc(Cl)cc2Cl)CC1)Nc1nnc(N[C@@H]2CCN(c3cccnn3)C2)s1 | – | 2.5
O=C(CN1CCN(Cc2ccc(OC(F)(F)F)cc2)CC1)Nc1nnc(N[C@H]2CN(c3cccnn3)C[C@@H]2F)s1 | – | 1.7
CN1CCN(Cc2cccc(OC(F)(F)F)c2)[C@@H](CC(=O)Nc2nnc(N[C@@H]3CCN(c4cccnn4)C3)s2)C1 (single isomer, unassigned) [Example 65] | 35.2 | 12.7
CC(C)Oc1ccccc1CN1CC2(CC(SCC(=O)Nc3nnc(N[C@@H]4CCN(c5cccnn5)C4)s3)C2)C1 | 19.4 | 40.4
Cc1ccccc1CN1CCC([C@H](C(=O)Nc2nnc(N[C@@H]3CCN(c4cccnn4)C3)s2)C2CCC2)CC1 (single isomer, unassigned) [Example 219] | 72.3 | 24.3
CC1(C)CCC(N2CCO[C@@H](CC(=O)Nc3nnc(N[C@@H]4CCN(c5ccc(Cl)nn5)C4)s3)C2)CC1 (single isomer, unassigned) [Example 282] | 100 | 36.3
O=C(C[C@@H]1CCCN(Cc2cccc(OC(F)(F)F)c2)C1)Nc1nnc(N[C@@H]2CCN(c3cccnn3)C2)s1 | 57.6 | 2.8
Cc1ccc(CN2CC[C@]3(C2)C[C@H](CC(=O)Nc2nnc(N[C@@H]4CCN(c5cccnn5)C4)s2)C3)c(OC(C)C)c1 (single isomer, unassigned) [Example 192] | 18.5 | 29.6
CC1(C)CCC(N2CCC(F)(F)C(CC(=O)Nc3nnc(N[C@@H]4CCN(c5cccnn5)C4)s3)C2)CC1 (stereo partly shown) | 29 | 2.7
O=C(C[C@@H]1CCCN(Cc2cccc(Cl)c2)C1)Nc1nnc(N[C@@H]2CCN(c3cccnn3)C2)s1 | 58.9 | 4.2

Compound | IC50 [1] [nM] | IC50 [2] [nM]
CC(C)Sc1ccccc1CN1CC2(CO[C@@H](CC(=O)Nc3nnc(N[C@@H]4CCN(c5cccnn5)C4)s3)C2)C1 (single isomer, unassigned) [Example 216] | 21.4 | 4.2
O=C(CC1CN(C2CC3(CCCC3)C2)CCO1)Nc1nnc(N[C@@H]2CCN(c3cccnn3)C2)s1 (stereo partly shown) | 13.3 | 3.1
Cc1c(Cl)cc(CN2CCN(CC(=O)Nc3nnc(N[C@@H]4CCN(c5cccnn5)C4)s3)CC2)cc1Cl | – | 0.9
O=C(CN1CCN(Cc2ccccc2OC(F)(F)F)CC1)Nc1nnc(N[C@@H]2CCN(c3cccnn3)C2)s1 | – | 3
O=C(CN1CCN(Cc2cc(F)cc(C(F)(F)F)c2)CC1)Nc1nnc(N[C@@H]2CCN(c3cccnn3)C2)s1 | – | 1.4
O=C(CN1CCN(Cc2cc(F)cc(Cl)c2)CC1)Nc1nnc(N[C@@H]2CCN(c3cccnn3)C2)s1 | – | 2.7
O=C(CN1CCN(Cc2ccc(OC(F)(F)F)c(Cl)c2)CC1)Nc1nnc(N[C@@H]2CCN(c3cccnn3)C2)s1 | – | 1
O=C(CN1CCN(Cc2ccc(F)c(F)c2)CC1)Nc1nnc(N[C@@H]2CCN(c3cccnn3)C2)s1 | – | 6.9
O=C(CN1CCN(Cc2cccc(F)c2F)CC1)Nc1nnc(N[C@@H]2CCN(c3cccnn3)C2)s1 | – | 8.3
O=C(CN1CCN(Cc2ccc(C(F)(F)F)cc2Cl)CC1)Nc1nnc(N[C@@H]2CCN(c3cccnn3)C2)s1 | – | 2
O=C(CN1CCN(Cc2cc(Cl)cc(C(F)(F)F)c2)CC1)Nc1nnc(N[C@@H]2CCN(c3cccnn3)C2)s1 | – | 1.3
O=C(CN1CCN(Cc2cccc(OC(F)F)c2)CC1)Nc1nnc(N[C@@H]2CCN(c3cccnn3)C2)s1 | – | 7.6
O=C(CN1CCN(Cc2cc(OC(F)(F)F)ccc2Cl)CC1)Nc1nnc(N[C@@H]2CCN(c3cccnn3)C2)s1 | – | 1.3
O=C(CN1CCN(Cc2ccc(OC(F)(F)F)cc2)CC1)Nc1nnc(N[C@@H]2CCN(c3ccc(Cl)nn3)C2)s1 | – | 3
O=C(CN1CCN(Cc2ccc(C(F)(F)F)c(F)c2)CC1)Nc1nnc(N[C@@H]2CCN(c3cccnn3)C2)s1 | – | 0.9
Cc1ccc(CN2CCN(CC(=O)Nc3nnc(N[C@@H]4CCN(c5cccnn5)C4)s3)CC2)cc1OC(F)F | – | 2.9
O=C(CN1CCN(Cc2cc(F)cc(F)c2)CC1)Nc1nnc(N[C@@H]2CCN(c3cccnn3)C2)s1 | – | 6.3
O=C(CN1CCN(Cc2cc(F)c3c(c2)CCC3)CC1)Nc1nnc(N[C@@H]2CCN(c3cccnn3)C2)s1 | – | 1.2
COc1c(F)cc(CN2CCN(CC(=O)Nc3nnc(N[C@@H]4CCN(c5cccnn5)C4)s3)CC2)cc1F | – | 3.4
COc1cc(CN2CCN(CC(=O)Nc3nnc(N[C@@H]4CCN(c5cccnn5)C4)s3)CC2)ccc1C(F)(F)F | – | 1.1
